Reference: PubChem BioAssay AID1850 (Southern Research Specialized Biocontainment Screening …, 2009)
The entries are a selection whose mix differs from that of the whole data set. Measured potencies and affinities stand elsewhere. Calls of active or inactive are those of the source. No rule for the calls is given here.

Assay: Inhibition of PhoP regulon, Salmonella typhi GFP reporter cells, confirmation, 4 h (AID 1850);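 also: 0% = induced wells with vehicle and 100% = uninduced wells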
Settings: Salmonella Typhi PhoP-promoter GFP reporter, fluorescence, at 50 µM, stronger effect = higher value

Row | SMILES | inhibition
1 | CCOP(C)(=S)SCC(=O)NC(C)(CC)C(=O)O (centres undefined) | inactive: -4.18%
2 | CP(=O)(Nc1ccc(SC(F)(F)F)cc1)Oc1ccc(F)cc1 (centres undefined) | inactive: -3.23%
3 | O=[N+]([O-])c1cc([N+](=O)[O-])c(NCC2CCS(=O)(=O)C2)c([N+](=O)[O-])c1 (centres undefined) | inactive: 2.24%
4 | O=[N+]([O-])c1ccc(OP2(=O)COCCO2)cc1 (centres undefined) | inactive: 13.8%
5 | COc1ccc(NP(C)(=O)Oc2ccccc2OC)cc1 (centres undefined) | inactive: 6.47%
6 | CN(C)CCOC(=O)C(O)(c1ccccc1)C1CCCCC1 (centres undefined) | inactive: 7.09%
7 | COc1ccc(OP(C)(=O)Nc2cccc(Br)c2)cc1 (centres undefined) | inactive: -9.07%
8 | CP(=O)(OC12CC3CC(CC(C3)C1)C2)OC12CC3CC(CC(C3)C1)C2 | inactive: 12.4%
9 | CCOC(=O)c1ccc(NP(C)(=O)Oc2ccc(Cl)cc2)cc1 (centres undefined) | inactive: -3.59%
10 | Nc1ccc2c(ccc3cccnc32)n1.O=[N+]([O-])c1cc([N+](=O)[O-])c(O)c([N+](=O)[O-])c1 | inactive: -9.21%
11 | CN(C)C(=O)c1c([N+](=O)[O-])cc([N+](=O)[O-])cc1[N+](=O)[O-] | inactive: 6.9%
12 | CP(=O)(Nc1ccc(Cl)cc1)Oc1ccc(F)cc1 (centres undefined) | inactive: -10.2%
13 | CC(C)(C)c1ccc(OP(C)(=O)O)cc1 | inactive: -0.41%
14 | COc1ccccc1OP(C)(=O)Nc1ccccc1Br (centres undefined) | inactive: 3.12%
15 | CCc1ccc(OP(C)(=O)Nc2cccnc2)cc1 (centres undefined) | inactive: 0.92%
16 | CP(=O)(Oc1ccccc1)N1CCOC1=O (centres undefined) | inactive: 2.01%
17 | O=C(OCCCN1CCCC1)C(O)(c1ccccc1)C1CCCCC1 (centres undefined) | inactive: 7.55%

Row | SMILES | inhibition
18 | COc1ccccc1OP(C)(=O)Nc1c(C)n(C)n(-c2ccccc2)c1=O (centres undefined) | inactive: -5.6%
19 | COc1ccc(OP(C)(=O)Nc2ccc(Br)cc2)cc1 (centres undefined) | inactive: -4.29%
20 | CCN(CC)CC(O)COC(=O)C(O)(c1ccccc1)C1CCCCC1 (centres undefined) | inactive: 1.82%
21 | CCc1ccc(OP(C)(=O)O)cc1 | inactive: -10.5%
22 | COc1ccccc1OP(C)(=O)Nc1ccc(C)cc1C (centres undefined) | inactive: -4.21%
23 | CP(=O)(Nc1ccccn1)Oc1ccccc1 (centres undefined) | inactive: 5.06%
24 | O=[N+]([O-])c1cc([N+](=O)[O-])c(Nc2ccccn2)c([N+](=O)[O-])c1 | inactive: 4.93%
25 | Cc1c(NP(C)(=O)Oc2ccc(C(C)C)cc2)c(=O)n(-c2ccccc2)n1C (centres undefined) | inactive: 4.77%
26 | CN(C)CCOC(=O)C(O)(c1ccccc1)C1CCCC1 (centres undefined) | inactive: -1.27%
27 | COc1ccc(OP(C)(=O)Nc2ccccn2)cc1 (centres undefined) | inactive: -3.51%
28 | COc1ccccc1OP(C)(=O)Nc1ccc(Br)cc1 (centres undefined) | inactive: -18%
29 | CP(=O)(OCCOc1ccccc1)OCCOc1ccccc1 | inactive: 0.94%
30 | CP(=O)(Nc1ccc(Cl)cc1Cl)Oc1ccccc1 (centres undefined) | inactive: -2.13%
31 | Cc1nc2ccc3ccccc3c2o1.O=[N+]([O-])c1cc([N+](=O)[O-])c(O)c([N+](=O)[O-])c1 | inactive: 1.37%
32 | COc1ccc(OP(C)(=O)Nc2ccccc2Br)cc1 (centres undefined) | inactive: -4.3%
33 | COc1ccccc1OP(C)(=O)Nc1ccc(C)c(C)c1 (centres undefined) | inactive: 12.6%
34 | Cc1cc(C)cc(OP(C)(=O)Nc2cccc(C(F)(F)F)c2)c1 (centres undefined) | inactive: 12.1%
